Consider one molecule from patent US8809347B2, “Bicyclic aryl and bicyclic heteroaryl substituted triazoles useful as AXL inhibitors” (Rigel Pharmaceuticals, Inc., priority 2006, dated 2014).

Chains of the proteins cited; added tags and fusions are not shown. Residues count along the entry.
UniProt P30530, 26-894 limits assumed: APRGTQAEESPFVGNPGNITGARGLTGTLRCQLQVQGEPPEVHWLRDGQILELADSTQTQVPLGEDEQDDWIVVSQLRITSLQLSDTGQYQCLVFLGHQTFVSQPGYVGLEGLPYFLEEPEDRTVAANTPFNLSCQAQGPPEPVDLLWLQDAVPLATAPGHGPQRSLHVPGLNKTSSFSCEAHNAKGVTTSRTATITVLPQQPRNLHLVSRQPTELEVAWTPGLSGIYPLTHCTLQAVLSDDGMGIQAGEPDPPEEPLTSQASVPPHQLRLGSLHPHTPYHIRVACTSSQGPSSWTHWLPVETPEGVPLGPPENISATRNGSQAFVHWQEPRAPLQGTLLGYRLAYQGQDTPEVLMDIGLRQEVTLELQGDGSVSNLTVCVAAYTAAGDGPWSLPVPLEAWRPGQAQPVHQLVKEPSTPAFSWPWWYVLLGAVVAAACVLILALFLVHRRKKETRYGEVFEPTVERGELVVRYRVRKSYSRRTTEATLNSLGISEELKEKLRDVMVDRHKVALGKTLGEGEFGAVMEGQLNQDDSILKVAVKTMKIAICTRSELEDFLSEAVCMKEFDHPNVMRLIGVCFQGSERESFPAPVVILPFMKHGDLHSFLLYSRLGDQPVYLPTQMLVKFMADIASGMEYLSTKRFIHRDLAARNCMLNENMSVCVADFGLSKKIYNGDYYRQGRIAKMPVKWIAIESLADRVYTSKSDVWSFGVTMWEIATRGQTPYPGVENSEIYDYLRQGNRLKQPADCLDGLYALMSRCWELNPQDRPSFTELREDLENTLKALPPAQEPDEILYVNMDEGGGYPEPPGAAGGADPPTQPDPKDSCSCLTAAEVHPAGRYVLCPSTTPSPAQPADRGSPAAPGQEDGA

The target of this assay is Axl (Homo sapiens, UniProt P30530). The assay can be described thus: Phospho-Akt in-cell Western assay (inhibition of Axl activity). Type of assay: cell-based. The following applies: Hela cells; 1 hr pre-treatment; stimulation by Axl-antibody cross-linking; phospho-Akt chemiluminescence normalized to relative cell number. Here is the method:
The compounds of the invention were tested in the following assay for their ability to inhibit Axl activity.
Phospho-Akt in-Cell Western Assay […]

In general, IC50 refers to the concentration needed to halve the response being measured.

Regarding `CN1CCN(c2ccc(Nc3nc(N)n(-c4cc5c(nn4)CCCCCC5)n3)cc2)CC1`, the IC50 is less than 1 µM.
